Bioassay records as filed in PubChem.
A selection: hits, their analogues and other compounds. The true share with any hit is near 1.5%.
CASP6 VEID inh: caspase-6 (human) enzyme inhibition; P55212; 350,000 tested, 0.53% active; purified caspase-6, Z-VEID-R110 cleavage fluorescence; AID 686996; inhibition, % at 12.5 µM;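 active = mean inhibition across replicates at least about 35%, with every replicate also reaching that limit, limit read from the data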
PglD DTNB: PglD (C. jejuni) enzyme inhibition; inhibition, % at 12.5 µM; 360,000 tested, 0.098% active; purified PglD enzyme, DTNB colorimetric CoA detection; in the data active = inhibition above about 16%, passing the limit was not always enough
RAD54 branch: inhibitors of human RAD54 branch migration; Q92698; inhibition, % at 10.4 µM; 360,000 tested, 0.14% active; RAD54 Holliday junction branch migration, FAM/BHQ fluorescence; AID 602329;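 active = mean normalized replicate activity at least 40 and at least half of replicates scoring 40 or more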;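 note: inhibitors cause a drop in the FAM fluorescence signal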
RAD52 inh: inhibitors of human RAD52 DNA annealing; P43351; 360,000 tested, 0.46% active; recombinant RAD52 DNA annealing, FRET fluorescence; AID 651710; inhibition, % at 18.7 µM;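 active = every replicate showing at least 50% inhibition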
GSIS activator: primary screen for activators of insulin secretion dependent on glucose, INS-1E cells, GLuc reporter luminescence. INS-1E GLuc reporter insulin secretion, 2-3 h. activation, % at 16.6 µM. 370,000 tested, 0.61% active. AID 743287;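 active = lowest replicate activation of at least 40%, so every replicate reaches that level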
Yeast UUG start: alters start codon recognition fidelity in yeast. S. cerevisiae UUG-firefly luciferase reporter, luminescence/redox ratio. activity score, % at 18.7 µM. 0.13% of 350,000 active. AID 602363;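 active = replicate mean at a twofold rise or more, about +100% in these data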;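 also: firefly luciferase made from a UUG start codon reports start codon fidelity; reporter light over untreated wells divided by growth signal over untreated wells; some hits fall short of that in this replicate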
Of the large screens only hits and unclear results are named; the others gave an inactive call.

CCCCCC(C)n1[nH]c(=O)c2c(C)cc(C)nc21 (configuration not stated)	none
C[C@@H]1CCCCO[C@@H](CN(C)Cc2ccc(C(=O)O)cc2)[C@H](C)CN([C@H](C)CO)C(=O)c2cc(NC(=O)Nc3ccc4c(c3)OCO4)ccc2O1	none
COC(=O)c1ccccc1-c1ccc(C(c2c(C)[nH][nH]c2=O)c2c(C)[nH][nH]c2=O)o1	CASP6 VEID inh 42 (no result: PglD DTNB, RAD54 branch, Yeast UUG start)
CCN(CC)S(=O)(=O)c1ccc(S(=O)(=O)Nc2c(C)nn(C)c2C)cc1	none
COC(=O)C1=C(C)N(Cc2ccco2)C(=O)/C1=C\c1ccc(N(C)C)cc1	GSIS activator 57 (no result: CASP6 VEID inh, RAD52 inh)
COC(=O)C1=C(C)N(Cc2ccco2)C(=O)/C1=C\c1ccc([N+](=O)[O-])cc1	none
Cc1cccc(C)c1Cn1c(C)c(C(=O)NCc2ccc(C#N)cc2)sc1=O	none
CCc1ccc(CCC(=O)Nc2sc3c(c2C#N)CCCC3)o1	none (no result: CASP6 VEID inh, RAD52 inh)
CCCSc1cc(NCCOC(=O)CCC)c([N+](=O)[O-])c2nonc12	none (no result: CASP6 VEID inh, PglD DTNB, RAD54 branch, RAD52 inh, Yeast UUG start)
CCCC(=O)OCCNc1cc(Sc2nccn2C)c2nonc2c1[N+](=O)[O-]	GSIS activator 162 (no result: CASP6 VEID inh, PglD DTNB, RAD54 branch, RAD52 inh, Yeast UUG start)
CCC(=O)OCCNc1cc(Sc2nc3ccccc3[nH]2)c2nonc2c1[N+](=O)[O-]	GSIS activator 88 (no result: CASP6 VEID inh, PglD DTNB, RAD54 branch, RAD52 inh, Yeast UUG start)
CC(=O)c1sc(NC(=O)C2CCN(c3ncnc4sc(C)c(C)c34)CC2)nc1-c1ccccc1	none
COc1nc(Nc2ccccc2)nc(OC)n1	GSIS activator 41
C[C@@H]1CN([C@@H](C)CO)C(=O)c2cc(NC(=O)Cc3cn(C)c4ccccc34)ccc2O[C@H]1CN(C)Cc1ccc(C(F)(F)F)cc1	none
COc1cc(C(=O)NC(CCSC)C(=O)OCc2cc([N+](=O)[O-])cc3c2OCOC3)cc(OC)c1OC (configuration not stated)	CASP6 VEID inh 36 (no result: PglD DTNB, RAD54 branch, Yeast UUG start)
C[C@@H]1CCCCO[C@@H](CN(C)CC2CC2)[C@@H](C)CN([C@H](C)CO)C(=O)c2cc(NC(=O)Nc3ccccc3)ccc2O1	none (no result: Yeast UUG start)
C[C@H](CO)N1C[C@H](C)[C@H](CN(C)CC2CC2)OCCCC[C@H](C)Oc2ccc(NC(=O)Nc3ccc(C(F)(F)F)cc3)cc2C1=O	RAD52 inh 54 (no result: PglD DTNB, RAD54 branch, Yeast UUG start)
C[C@@H]1CCCCO[C@H](CN(C)CC2CC2)[C@H](C)CN([C@@H](C)CO)C(=O)c2cc(NC(=O)Nc3ccccc3)ccc2O1	RAD52 inh 57 (no result: Yeast UUG start)
C[C@@H]1CCCCO[C@@H](CN(C)C)[C@@H](C)CN([C@H](C)CO)C(=O)c2cc(NC(=O)Nc3ccc(C(F)(F)F)cc3)ccc2O1	RAD52 inh 54
C[C@@H]1CCCCO[C@H](CN(C)C)[C@H](C)CN([C@@H](C)CO)C(=O)c2cc(NC(=O)Nc3ccc(C(F)(F)F)cc3)ccc2O1	none
C[C@@H]1CCCCO[C@H](CN(C)CC2CC2)[C@H](C)CN([C@@H](C)CO)C(=O)c2cc(NC(=O)Nc3ccc4c(c3)OCO4)ccc2O1	RAD52 inh 55 (no result: Yeast UUG start)
O=C(NCCC(=O)N1CCCCC1)c1ccc(Br)cc1	none
Oc1ccc(Br)cc1/C=N/N1CCN(Cc2ccccc2)CC1	none (no result: CASP6 VEID inh, RAD52 inh, GSIS activator)
CC(=O)N1CCCCN2[C@H](CO)[C@@H](c3ccc(Br)cc3)[C@H]2C1	none
C[C@@H]1CCCCO[C@H](CN(C)C)[C@@H](C)CN([C@H](C)CO)C(=O)c2cc(NC(=O)Nc3ccc(C(F)(F)F)cc3)ccc2O1	none
C[C@@H]1CCCCO[C@@H](CN(C)C)[C@H](C)CN([C@H](C)CO)C(=O)c2cc(NC(=O)Nc3ccc(C(F)(F)F)cc3)ccc2O1	RAD52 inh 50
O=C(NCCN1CCN(c2ccccc2)CC1)Nc1cccc(Br)c1	none
O=C(O)C1=C(C(=O)O)C2C=CC1C2	CASP6 VEID inh 53 (no result: GSIS activator)
O=c1[nH]c(=S)[nH]c2c1C(c1ccc(Cl)c(Cl)c1)OC(CCc1ccccc1)C2 (configuration not stated)	none (no result: PglD DTNB, RAD54 branch, Yeast UUG start)
O=c1[nH][nH]c2c1C(c1ccc(Cl)c(Cl)c1)OC(CCc1ccccc1)C2 (configuration not stated)	GSIS activator 56 (no result: PglD DTNB, RAD54 branch, Yeast UUG start)
COC(=O)C1=C(C)N(Cc2ccc(C(F)(F)F)cc2)C(=NCc2ccccc2C(F)(F)F)NC1c1ccccc1 (configuration not stated)	none (no result: PglD DTNB, RAD54 branch, Yeast UUG start)
COC(=O)C1=C(C)N(Cc2ccc(C(F)(F)F)cc2)C(=NCc2ccccc2C(F)(F)F)NC1c1ccc(C(F)(F)F)cc1 (configuration not stated)	none (no result: PglD DTNB, RAD54 branch, GSIS activator, Yeast UUG start)
COC(=O)C1=C(C)N(Cc2ccc(C(F)(F)F)cc2)C(=NCc2ccccc2C(F)(F)F)NC1c1ccc(Cl)cc1 (configuration not stated)	GSIS activator 49 (no result: PglD DTNB, RAD54 branch, Yeast UUG start)
COC(=O)C1=C(C)N(Cc2ccc(C(F)(F)F)cc2)C(=NCc2ccccc2C(F)(F)F)NC1c1cccc(Cl)c1 (configuration not stated)	GSIS activator 242 (no result: PglD DTNB, RAD54 branch, Yeast UUG start)
Cc1ccc([C@@H]2[C@@H]3C(=O)N(C)C(=O)[C@@H]3[C@]3(C)C(=O)N(CC4CC4)CC(=O)N23)o1	none (no result: GSIS activator)
CCN(C(=O)C12CC3CC(CC(C3)C1)C2)C1CCS(=O)(=O)C1 (configuration not stated)	GSIS activator 59
CCN(C(=O)COC(=O)CNC(=O)C12CC3CC(CC(C3)C1)C2)C1CCS(=O)(=O)C1 (configuration not stated)	none
CNc1nc(N)c([N+](=O)[O-])c(NCc2ccccc2)n1	none
Nc1nc(NCc2ccccc2)nc(NCc2ccccc2)c1[N+](=O)[O-]	GSIS activator 46 (no result: CASP6 VEID inh, RAD52 inh)
Cc1ccc(CNc2nc(N)c([N+](=O)[O-])c(NCc3ccccc3)n2)cc1	GSIS activator 126 (no result: CASP6 VEID inh, RAD52 inh)
O=C(CSc1nnnn1-c1ccc(Cl)cc1)N1CCNC1=O	none
COC(=O)CC1C(=O)NCCN1C(=O)CSc1nnnn1-c1ccc(Cl)cc1 (configuration not stated)	CASP6 VEID inh 50 (no result: PglD DTNB, RAD54 branch, Yeast UUG start)
Cc1noc(C)c1NC(=O)N(C)C[C@@H]1Oc2ncc(C#CCC(C)C)cc2C(=O)N([C@H](C)CO)C[C@@H]1C	none (no result: CASP6 VEID inh, PglD DTNB, RAD54 branch, RAD52 inh, Yeast UUG start)
Cc1ccc(S(=O)(=O)N2CC3C(=O)CC(c4ccccc4)N(S(=O)(=O)c4ccc(C)cc4)C3CC2c2cccc(Cl)c2)cc1 (configuration not stated)	none (no result: PglD DTNB, RAD54 branch, Yeast UUG start)
CSCC[C@H](NS(=O)(=O)c1ccc(C(C)=O)cc1)c1nnc2ccccn12	CASP6 VEID inh 37
COCCN(C(=O)c1ccccc1)c1nnc(-c2cccnc2)s1	none (no result: CASP6 VEID inh, RAD52 inh, GSIS activator)
Cc1cccc(C)c1NC(=O)NC1CCc2ccccc21 (configuration not stated)	GSIS activator 119
COc1cccc(CN(C)C(=O)C2CCN(S(=O)(=O)c3ccc(C)cc3)CC2)c1OC	none
Nc1nnc(SCc2nc3scc(-c4ccccc4)c3c(=O)[nH]2)s1	none (no result: PglD DTNB, RAD54 branch, Yeast UUG start)
Nc1nc(SCc2nc3scc(-c4ccccc4)c3c(=O)[nH]2)n[nH]1	GSIS activator 55
